Compound activity from PubChem BioAssay.
miR-21 reporter = raises the signal of a miR-21 reporter; Potency, µM (doses to about 38.3 µM), inactives show top-dose reporter change, positive = more light; HeLa miR-21 FLuc reporter, luciferase, 48 h; AID 2288; 340,000 tested, under 10 active; active = well fitted rising curve with a large enough effect; inconclusive = small, poorly fitted or top-dose-only effect; inactive = no such curve, though single readings can be large or run the other way;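 further: % of control where 0% means no effect; miR-21 action dims this reporter so a rising signal means less miR-21 action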
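Compounds were titrated across several concentrations (up to approximately 40 uM) and incubated 48 hours with HeLa miR-21-FLuc reporter cells (miR-21 target sequence downstream of FLuc, endogenous miR-21). Readout was firefly luciferase luminescence after lytic detection reagent.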
TDP1 block = inhibitors of human tyrosyl-DNA phosphodiesterase TDP1 | 350,000 tested, 0.28% active | Potency, µM (series often up to 130 µM), for the others: at the top dose activity change, negative = inhibition, actives largely listed as inhibitors | recombinant TDP1, AlphaScreen DNA substrate cleavage | Q9NUW8; note: potency is the fitted concentration of half-maximal effect; % is set by controls: 0 for no effect and ±100 for the full control effect; nearly all actives have a fitted effect of over 40% in size
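Steps: enzyme plus compound, 15 min RT; add biotin/phosphotyrosine-FITC oligonucleotide (15 nM final), react 5 min; add donor/acceptor beads (10 ug/ml final), 10 min; read AlphaScreen. Tdp1 at 1 nM final.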
uPA surface inh = cell surface uPA generation inhibition; Potency, µM (series often up to 38.3 µM), for the others: at the highest dose activity change, negative = inhibition, hits mostly inhibitors; AID 540303; 330,000 tested, 0.31% active; cell surface uPA generation assay, qHTS; active = well fitted inhibition curve with a large enough effect; inconclusive = small, poorly fitted or top-dose-only effect; inactive = no such curve, though single readings can be large or run the other way; tested in mouse RAW 264.7 cells; note: potency is the fitted concentration of half-maximal effect; % is set by controls: 0 for no effect and ±100 for the full control effect; nearly all actives have a fitted effect of over 55% in size
TDP1 cell CPT = DT40-hTDP1 cell growth loss with CPT; chicken DT40 Tdp1-/-;hTDP1 cells + 20 nM CPT, ATP luminescence, 48 h; Potency, µM (doses to about 46.2 µM), without a hit: at the highest dose activity change, negative = growth inhibition, hits mostly inhibitors; 420,000 tested, 12% active; note: potency is the fitted concentration of half-maximal effect; % is set by controls: 0 for no effect and ±100 for the full control effect; nearly all actives have a fitted effect of over 55% in size
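Cell growth measured by CellTiter-Glo luminescence after a minimum 48 h, 37 C compound exposure with 20 nM CPT in Tdp1-knockout DT40 cells stably expressing hTDP1, seeded 400/well; qHTS titration format.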
DT40 TDP1 no CPT = qHTS for Inhibitors of human tyrosyl-DNA phosphodiesterase 1 (TDP1): qHTS in cells in absence of CPT. Potency, µM (series often up to 46.2 µM), inactives show at the top dose activity change, negative = growth inhibition, usual class: inhibitors. 420,000 tested, 15% active. DT40 Tdp1-/- hTDP1 cells, no CPT, ATP luminescence, 48 h; note: potency is the fitted concentration of half-maximal effect; % is set by controls: 0 for no effect and ±100 for the full control effect; nearly all actives have a fitted effect of over 55% in size
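DT40 Tdp1-/-;hTDP1 cells, no CPT (DMSO vehicle only), 400 cells/well; compounds pin-transferred; ≥48 hr, 37 °C; CellTiter-Glo 30 min RT dark, luminescence read.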
Active calls of the source: *; ? = inconclusive; . = not tested or not shown. Only some compounds are listed: those with a hit (about 16% of all), similar ones and a draw of the others. Unless noted, calls come from the whole dose curve; as a rule, active = well fitted curve in the direction sought with a large enough effect; inconclusive = small, poorly fitted or top-dose-only effect, or another doubt; inactive = no such curve, though single readings can be large; an effect the other way counts as inactive or inconclusive.

SMILES	miR-21 reporter	TDP1 block	uPA surface inh	TDP1 cell CPT	DT40 TDP1 no CPT
COc1ccc(CCn2c3c(c(=O)[nH]c2=O)C(NC(=O)c2ccccc2OC)(C(F)(F)F)C(=O)N3)cc1OC (stereo not drawn)	-1%	3%	.	-15%	-6%
N#Cc1nc(-c2ccc(OCc3ccccc3)cc2)oc1NCCCn1ccnc1	-4%	13%	6%	?	21µM*
CCCOc1ccc(-c2nc(C#N)c(NCCCn3ccnc3)o2)cc1	1%	12%	.	?	18µM*
O=C(COc1cccnc1[N+](=O)[O-])N1CCN(C(=O)c2ccco2)CC1	5%	.	4%	-3%	-6%
Cc1ccc(CN=c2c([N+](=O)[O-])nn(-c3ccc4c(c3)OCCO4)n2O)cc1	-68%	-3%	-12%	?	23µM*
O=[N+]([O-])c1nn(-c2ccc3c(c2)OCCO3)n(O)c1=NCCCO	-52%	1%	-7%	15µM*	21µM*
O=[N+]([O-])c1nn(-c2ccc3c(c2)OCCO3)n(O)c1=NC1CCCC1	-31%	-2%	-6%	18µM*	?
Cc1ccc(N=c2c([N+](=O)[O-])nn(-c3ccc4c(c3)OCCO4)n2O)c(Cl)c1	-23%	6%	.	.	.
COc1ccc(-n2nc([N+](=O)[O-])c(=NCc3ccc4c(c3)OCO4)n2O)cc1	-63%	0%	-27%	?	18µM*
Cc1ccc(C(=O)Nc2ccccc2C(=O)NC(C(=O)O)C(C)C)cc1 (stereo not drawn)	-48%	6%	.	2%	-3%
CC(C)(C)OC(=O)N1CCC(c2c(C(=O)N3CCCCC3)cnn2-c2ccc(Cl)cc2)CC1	-1%	7%	.	?	?
O=C(NCCCN1CCOCC1)c1cccc(NC(=O)c2ccccc2)c1	.	.	14%	8%	-1%
O=C(NCCCN1CCOCC1)c1ccc(Sc2ccc(Br)cc2)c([N+](=O)[O-])c1	-4%	3%	6%	6.5µM*	10µM*
Cc1ccc(NC(=O)c2ccc(NCCN)c([N+](=O)[O-])c2)cc1	-33%	7%	-4%	?	?
O=C(NCCCN1CCOCC1)c1ccc(Sc2ccccc2Cl)c([N+](=O)[O-])c1	-12%	0%	-1%	?	?
O=C(Nc1cccc(Cl)c1)c1ccc(NCCCN2CCOCC2)c([N+](=O)[O-])c1	1%	9%	-16%	?	29µM*
Cc1ccc(NC(=O)c2ccc(NCCCN3CCC(C)CC3)c([N+](=O)[O-])c2)cc1F	-7%	-1%	-4%	4.6µM*	8.2µM*
CC(=O)CSc1nnc2[nH]c(=O)cc(N)n12	-1%	-4%	.	2%	0%
O=C(O)CCC(=O)c1ccc2ccc3cccc4ccc1c2c34	20%	0%	.	.	.
O=C1OC2(CCCCC2)OC(=O)C1=CNc1ccc2c(c1)OCO2	0%	4%	.	-23%	-15%
COc1ccc2c(c1)CC/C(=C\Nc1ccc3c(c1)OCO3)C2=O	-41%	9%	?	15µM*	?
COc1ccc(N/C=C2\CCc3ccccc3C2=O)cc1	20%	1%	1.3µM*	?	?
COc1ccc(S(=O)(=O)Nc2ccc3c(c2)OCO3)cc1	-4%	7%	-7%	-27%	?
O=C1/C(=C/Nc2ccc3c(c2)OCO3)CCc2ccccc21	15%	1%	-5%	26µM*	?
CCOC(=O)C1=C(c2ccccc2)NC(SC)=C(C#N)C1c1ccco1 (stereo not drawn)	7%	1%	-7%	18µM*	21µM*
CCOC(=O)C1=C(c2ccccc2)NC(SCC(=O)Nc2ccc(C)cc2)=C(C#N)C1c1ccco1 (stereo not drawn)	28%	7%	-4%	?	?
COc1ccc(NC(=O)COc2ccccc2C#N)c(S(=O)(=O)N2CCCCC2)c1	0%	4%	-1%	?	?
C=CCc1c(C)nc(SC)nc1Nc1ccc(C)cc1	10%	3%	-24%	9.2µM*	21µM*
Cc1ccc(C(C)NC(=S)NCc2ccc(F)cc2)c(C)c1 (stereo not drawn)	13%	2%	18%	21µM*	16µM*
CC(C)c1ccc(C(C(C(=O)c2ccccc2)N2CCOCC2)N2CCOCC2)cc1 (stereo not drawn)	.	.	-1%	5%	-1%
COC(=O)[C@@]12C[C@@H](CC(=O)NCCC(C)C)C(=O)N(Cc3ccc4c(c3)OCO4)C1=CCC(C)(C)C2	.	.	.	?	18µM*
CCCCOCCCNC(=O)C[C@@H]1C[C@@]2(C(=O)OC)CC(C)(C)CC=C2N(Cc2ccc3c(c2)OCO3)C1=O	.	.	.	?	21µM*
CCN(CC)C(=O)C1=C(C)N(CCCN2CCCC2=O)C(=O)C(CC(=O)NCCCCc2ccccc2)C1 (stereo not drawn)	.	.	.	-11%	-12%
Cc1cc(C)cc(NS(=O)(=O)c2ccc(-n3cccn3)cc2)c1	19%	3%	.	16µM*	?
CCc1cccc(NS(=O)(=O)c2ccc(-n3cccn3)cc2)c1	11%	6%	-3%	16µM*	21µM*
COc1cc(NS(=O)(=O)c2ccc(-n3cccn3)cc2)cc(OC)c1	.	.	.	13µM*	12µM*
O=S(=O)(Nc1cccc(Cl)c1)c1ccc(-n2cccn2)cc1	2%	.	-2%	-29%	?
COc1ccc(NS(=O)(=O)c2ccc(-n3cccn3)cc2)cc1OC	17%	-4%	.	5.8µM*	4.6µM*
Cc1ccc(NS(=O)(=O)c2ccc(-n3cccn3)cc2)cc1C	7%	0%	-3%	?	?
Cc1cc(C)cc(N(C(C)C(=O)N2CCCCC2)S(C)(=O)=O)c1 (stereo not drawn)	1%	1%	5%	-22%	-4%

Record cards, from the list above. Order of screens: miR-21 reporter | TDP1 block | uPA surface inh | TDP1 cell CPT | DT40 TDP1 no CPT
`Cc1cc(C)cc(N(C(C)C(=O)N2CCCCC2)S(C)(=O)=O)c1` (stereo not drawn) in the list: 1% | 1% | 5% | -22% | -4%
`CCc1cccc(NS(=O)(=O)c2ccc(-n3cccn3)cc2)c1` in the list: 11% | 6% | -3% | 16µM* | 21µM*
`COc1cc(NS(=O)(=O)c2ccc(-n3cccn3)cc2)cc(OC)c1` in the list: . | . | . | 13µM* | 12µM*
`COc1ccc(NS(=O)(=O)c2ccc(-n3cccn3)cc2)cc1OC` in the list: 17% | -4% | . | 5.8µM* | 4.6µM*
`Cc1ccc(NS(=O)(=O)c2ccc(-n3cccn3)cc2)cc1C` in the list: 7% | 0% | -3% | ? | ?

The listing continues.
SMILES	miR-21 reporter	TDP1 block	uPA surface inh	TDP1 cell CPT	DT40 TDP1 no CPT
COC(=O)c1cc(S(=O)(=O)NCc2ccccc2OC)cn1C	4%	3%	2%	?	8.2µM*
Cc1ccc(C)c(NS(=O)(=O)c2ccc(-n3cccn3)cc2)c1	.	.	.	-39%	?
O=S(=O)(Nc1ccc(F)cc1F)c1ccc(-n2cccn2)cc1	1%	0%	.	16µM*	?
COC(=O)c1cc(S(=O)(=O)NCc2cccc(OC)c2)cn1C	0%	.	-1%	-29%	-2%
CCc1cccc(C)c1NS(=O)(=O)c1ccc(-n2cccn2)cc1	0%	3%	.	16µM*	26µM*
Cc1ccc(NS(=O)(=O)c2ccc(-n3cccn3)cc2)cc1Cl	-2%	3%	.	?	?
COc1ccccc1CNS(=O)(=O)c1ccc(-n2cccn2)cc1	1%	3%	-5%	26µM*	?
CCCCCCN1C[C@H](n2cc(-c3ccc(F)cc3)nn2)[C@@H](O)C[C@@H]1c1ccc(Cl)cc1	.	.	.	?	16µM*
